# Test results published in ChEMBL document CHEMBL5046218, “Novel Dual-Target μ-Opioid Receptor and Dopamine D3 Receptor Ligands as Potential Nonaddictive Pharmacotherapeutics for Pain Management” (J Med Chem, 2021).
# By UniProt entry, the sequences of proteins in these tests, tags left out.
# UniProt P35372, whole entry: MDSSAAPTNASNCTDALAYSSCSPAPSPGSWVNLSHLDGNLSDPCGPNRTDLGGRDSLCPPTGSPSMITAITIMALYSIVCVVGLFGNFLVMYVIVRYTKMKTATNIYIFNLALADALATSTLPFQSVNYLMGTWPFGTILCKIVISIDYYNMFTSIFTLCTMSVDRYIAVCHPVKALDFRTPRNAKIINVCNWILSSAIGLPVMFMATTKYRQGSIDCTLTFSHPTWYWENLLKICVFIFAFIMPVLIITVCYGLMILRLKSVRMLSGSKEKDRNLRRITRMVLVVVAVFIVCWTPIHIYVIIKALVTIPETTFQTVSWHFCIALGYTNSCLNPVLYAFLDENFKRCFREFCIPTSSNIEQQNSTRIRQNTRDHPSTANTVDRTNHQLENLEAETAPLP
# UniProt P35462, whole entry: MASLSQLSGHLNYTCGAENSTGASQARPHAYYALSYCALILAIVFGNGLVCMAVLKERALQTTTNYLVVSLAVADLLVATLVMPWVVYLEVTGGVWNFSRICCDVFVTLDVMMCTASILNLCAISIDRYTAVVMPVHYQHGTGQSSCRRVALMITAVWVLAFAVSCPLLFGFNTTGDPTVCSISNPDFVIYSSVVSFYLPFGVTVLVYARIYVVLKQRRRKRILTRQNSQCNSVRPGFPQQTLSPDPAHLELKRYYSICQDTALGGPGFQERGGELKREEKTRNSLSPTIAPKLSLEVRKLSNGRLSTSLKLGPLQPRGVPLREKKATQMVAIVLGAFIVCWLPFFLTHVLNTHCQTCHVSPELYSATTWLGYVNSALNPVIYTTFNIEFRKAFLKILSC
# pKi: −log10 of the molar value.
# Assays:
# Mu-type opioid receptor = Mu-type opioid receptor (Homo sapiens, UniProt P35372); assay type: cell membranes, HEK293, Membrane
# D(3) dopamine receptor = D(3) dopamine receptor (Homo sapiens, UniProt P35462); assay: Displacement of [3H]-N-methylspiperone from human dopamine D3 receptor expressed in HEK293 cell membranes incubated for 60 mins by microbeta scintillation counting analysis; parameters: species or system Membrane
SMILES,pKi (Mu-type opioid receptor),also measured
CN(C)CCC(C#N)(c1ccccc1)c1ccccc1,5.41,–
CN(C)C(=O)C(CCNCCc1ccccc1)(c1ccccc1)c1ccccc1,7.30,–
CCc1cccc(N2CCN(CC(O)CCNCCC(C(=O)N(C)C)(c3ccccc3)c3ccccc3)CC2)c1Cl (stereo unspecified),6.48,–
O=C(NCCCCN1CC[C@]2(c3cccc(O)c3)CCC[C@H]1[C@H]2O)c1cc2ccccc2[nH]1,6.33,–
N#CC(CCNCCC(O)CN1CCN(c2cccc(Cl)c2Cl)CC1)(c1ccccc1)c1ccccc1 (stereo unspecified),7.20,–
CCc1cccc(N2CCN(CCCCNCCC(C(=O)N(C)C)(c3ccccc3)c3ccccc3)CC2)c1Cl,6.58,–
O=C(NCCCCN1CC[C@]2(c3cccc(O)c3)CCC[C@H]1[C@@H]2O)c1cc2ccccc2[nH]1,6.01,–
CCOC(=O)/C=C1\[C@@H]2CCC[C@@]1(c1cccc(O)c1)CCN2CCN1CCN(c2cccc(Cl)c2Cl)CC1,7.03,–
COc1cccc(C(=CCNCCCCN2CCN(c3cccc(Cl)c3Cl)CC2)c2cccc(OC)c2)c1,5.00,–
N#CC(CCNCCCCC(=O)N1CCN(c2cccc(Cl)c2Cl)CC1)(c1ccccc1)c1ccccc1,7.22,–
Oc1cccc([C@@]23CCC[C@@H]([C@H]2O)N(C/C=C/c2ccccc2)CC3)c1,9.42,–
CCc1cc(Cl)c(OC)c(C(=O)NCC2CCCN2CC(=O)N2CCC(c3ccccc3)(c3ccccc3)C2)c1O (stereo unspecified),4.85,–
N#CC(CCN1CCN(c2cccc(Cl)c2Cl)CC1)(c1ccccc1)c1ccccc1,6.58,–
CCc1cc(Cl)c(OC)c(C(=O)NC[C@@H]2C[C@@H](OCCCCNCCC(C(=O)N(C)C)(c3ccccc3)c3ccccc3)CN2)c1O,6.25,–
CCOC(=O)/C=C1\[C@@H]2CCC[C@@]1(c1cccc(O)c1)CCN2CCCCNC(=O)c1cc2ccccc2[nH]1,–,pKi (Mu-type opioid receptor; hek293): 7.24
CCOC(=O)/C=C1\[C@@H]2CCC[C@@]1(c1cccc(O)c1)CCN2CC1CC1CCNC(=O)c1cc2ccccc2[nH]1 (stereo partly specified),7.71,–
CCc1cccc(N2CCN(CCC(c3cccc(O)c3)c3cccc(O)c3)CC2)c1Cl,6.49,–
CCc1cccc(N2CCN(CCC(c3cccc(O)c3)c3cccc(OC)c3)CC2)c1Cl (stereo unspecified),6.62,pKi (D(3) dopamine receptor): 6.63

SMILES,pKi (Mu-type opioid receptor),also measured
CN(C)C(=O)C(CCN1CCc2ccc(C#N)cc2C1)(c1ccccc1)c1ccccc1,7.74,–
CCOC(=O)/C=C1\[C@@H]2CCC[C@@]1(c1cccc(O)c1)CCN2,6.32,–
Oc1cccc(C(CCNCCCCN2CCN(c3ccccc3)CC2)c2cccc(O)c2)c1,6.67,–
CN(C)C(=O)C(CCNCCC(O)CN1CCN(c2cccc(Cl)c2Cl)CC1)(c1ccccc1)c1ccccc1 (stereo unspecified),7.23,–
CCc1cccc(N2CCN(CCC(C(=O)N(C)C)(c3ccccc3)c3ccccc3)CC2)c1Cl,9.07,–
CN(C)C(=O)C(CCNCCCCN1CCc2ccc(C#N)cc2C1)(c1ccccc1)c1ccccc1,6.82,–
N#CC(CCNCCc1ccccc1)(c1ccccc1)c1ccccc1,5.93,–
Oc1cccc([C@]23CCC[C@H](NCC2)[C@H]3O)c1,6.76,–
CN1CCC(c2ccccc2)(c2ccccc2)C1,5.07,–
CCc1cc(Cl)c(OC)c(C(=O)NC[C@@H]2CCCN2CCC(C#N)(c2ccccc2)c2ccccc2)c1O,4.95,–
Oc1cccc([C@]23CCC[C@H](NCC2)[C@@H]3O)c1,5.49,–
CCc1cccc(N2CCN(CCC(c3cccc(OC)c3)c3cccc(OC)c3)CC2)c1Cl,5.41,–
CN(C)CCC(C(=O)NCCCCN1CCN(c2cccc(Cl)c2Cl)CC1)(c1ccccc1)c1ccccc1,5.83,–
CN(C)CCC(C(=O)N(C)C)(c1ccccc1)c1ccccc1,6.19,–
CCC(=O)N1CCC(c2ccccc2)(c2ccccc2)C1,4.82,–
CCOC(=O)/C=C1\[C@@H]2CCC[C@@]1(c1cccc(O)c1)CCN2C[C@H]1C[C@@H]1CCNC(=O)c1cc2ccccc2[nH]1 (relative stereo),7.87,–
CCOC(=O)/C=C1\[C@@H]2CCC[C@@]1(c1cccc(O)c1)CCN2C[C@@H]1C[C@H]1CCNC(=O)c1cc2ccccc2[nH]1 (relative stereo),7.25,–
